# According to patent US20260385963A1, “METHODS FOR IDENTIFICATION OF COMPOUND INTERACTION PARTNERS AND COMPOUNDS PRODUCED BY GENE CLUSTERS” (published 2026):
# “And” between values parts separate entries of the source, which are not always exact repeats. Identical values can stand only once.
# Experiments:
# [1] = tested on: ALG7; assay: Gene identification screen, yeast heterozygous diploid knockout library
# [2] = tested on: ALG7; assay: Gene identification screen, molecular barcoded yeast overexpression library
# [3] = tested on: ALG7; details: cited from earlier work
# [4] = tested on: HSC82; assay: Sequencing for HSC82 mutations after growth in radicicol; details: EMS-Library
# [5] = tested on: HSP82; assay: Sequencing for HSP82 mutations after growth in radicicol; details: EMS-Library
# [6] = tested on: fungal library strains (EMS-Library, Control-Library); assay: Growth of fungal library strains at different inoculation quantities (OD600); details: for OD600 measurement: rep 1 and rep 2, three days, 30 °C
# [7] = tested on: HSC82 or HPC82; assay: Sequencing for HSC82 or HPC82 mutations after growth in radicicol; details: Control-Library
# [8] = tested on: EMS-Library (mutagenized fungal library); assay: Fungal resistance screening in liquid media, EMS-Library (OD600); details: up to 1000 nM caspofungin, 72 hours, 30 °C, 100 μl
# [9] = tested on: FKS1; assay: Sequence assessment of FKS1 gene in EMS-Library after growth in caspofungin; details: at least 250 nM caspofungin, eight samples
# [10] = tested on: FKS1; assay: Sequencing for FKS1 mutations after growth in caspofungin, inoculation quantity test; details: for samples with FKS1 mutations: Control-Library, abundance threshold 10%
# [11] = tested on: FKS1; assay: Nanopore sequencing of FKS1 gene in msh2Δ+caspofungin wells; details: 250 nM caspofungin
# [12] = tested on: Control strain; assay: Growth of control strain at different sample volumes (OD600); details: 250 nM caspofungin, 30 °C, three days, replicates 1-6
# [13] = tested on: msh2Δ fungal strain; assay: Growth of msh2Δ fungal strain at different sample volumes (OD600); details: 250 nM caspofungin
# [14] = tested on: LCB2; details: cited from earlier work
# [15] = tested on: ERG25; assay: Chemical genetics screen, mutagenized fungal library (interaction z-score, ERG25); details: FIG. 3B, FIG. 4
# [16] = 0.016 μM compound, inoculation 2M cells
# [17] = 0.016 μM compound, inoculation 5M cells
# [18] = 0.08 μM compound, inoculation 2M cells
# [19] = 0.08 μM compound, inoculation 5M cells
# [20] = 0.4 μM compound, inoculation 2M cells
# [21] = 0.4 μM compound, inoculation 5M cells
# [22] = 2 μM compound, inoculation 2M cells
# [23] = 2 μM compound, inoculation 5M cells
# [24] = 10 μM compound, inoculation 2M cells
# [25] = 10 μM compound, inoculation 5M cells
molecule,measurement,setting,value
tunicamycin,"strain vs. IQR score, outliers (one is ALG7)",[1],Two extreme outliers were identified
same,"strain vs. IQR score, outliers including ALG7",[2],Multiple extreme outliers were identified
same,known target (ALG7),[3],known target of tunicamycin
C[C@@H]1C[C@H]2O[C@@H]2/C=C\C=C\C(=O)Cc2c(Cl)c(O)cc(O)c2C(=O)O1,frequency of HSC82 mutation (XIII 634144),[4]; 2 million cells,12.5%
same,samples with an HSC82 mutation (XIII 634144),[4]; 2 million cells,1/1
same,number of distinct HSC82 missense mutations,"[4]; 5 million cells, 10% threshold",seven
same,samples with HSC82 missense mutations,"[4]; 5 million cells, 10% threshold",1/1
same,samples with HSP82 mutations,[5]; 2 million cells,0/1
same,samples with HSP82 mutations,[5]; 5 million cells,0/1
same,OD600 measurement,[6]; [16],0.57 and 0.66
same,OD600 measurement,[6]; [17],0.76 and 0.53
same,OD600 measurement,[6]; [18],0.58
same,OD600 measurement,[6]; [19],0.87 and 0.60
same,OD600 measurement,[6]; [20],0.67 and 0.64
same,OD600 measurement,[6]; [21],0.80 and 0.61
same,OD600 measurement,[6]; [22],0.68 and 0.64
same,OD600 measurement,[6]; [23],0.89 and 0.78
same,OD600 measurement,[6]; [24],0.75 and 0.65
same,OD600 measurement,[6]; [25],0.84 and 0.65
same,samples with HSC82 or HPC82 mutations,[7]; 2 million cells,0/6
same,samples with mutations in HSC82 or HPC82,[7]; 5 million cells,0/6
CC[C@H](C)C[C@H](C)CCCCCCCCC(=O)N[C@H]1C[C@@H](O)[C@@H](NCCN)NC(=O)[C@@H]2[C@@H](O)CCN2C(=O)[C@H]([C@H](O)CCN)NC(=O)[C@H]([C@H](O)[C@@H](O)c2ccc(O)cc2)NC(=O)[C@@H]2C[C@@H](O)CN2C(=O)[C@H]([C@@H](C)O)NC1=O,growth of EMS-Library,[8],able to grow in all concentrations of caspofungin
same,samples with mutations in the FKS1 gene,[9],all revealed mutations in the FKS1 gene
same,samples with FKS1 mutations,[10]; 2 million cells,0/6
same,samples with FKS1 mutations,[10]; 5 million cells,0/6
same,frequency of XII 814065 missense mutation in FKS1,"[10]; EMS-Library, 2 million cells",98%
same,samples that passed sequencing with missense mutation in FKS1 (XII 814065),"[10]; EMS-Library, 2 million cells",1/1
same,frequency of two alleles containing missense mutations in FKS1 (XII 811888 and XII 811924),"[10]; EMS-Library, 5 million cells",50%
same,samples that passed sequencing with two alleles containing missense mutations in FKS1 (XII 811888 and XII 811924),"[10]; EMS-Library, 5 million cells",1/1
same,samples with a mutation in the FKS1 gene at over 20% abundance,[11],23/24
same,OD600 measurement,"[6]; 0.016 μM compound, inoculation 5M cells, listed as Caspofungin",0.91 and 0.94
same,OD600 measurement,"[6]; 0.4 μM compound, inoculation 2M cells, listed as Caspofungin",0.05 and 0.07
same,OD600 measurement,"[6]; 0.4 μM compound, inoculation 5M cells, listed as Caspofungin",0.09 and 0.11
same,OD600 measurement,"[6]; 2 μM compound, inoculation 2M cells, listed as Caspofungin",0.06 and 0.08
same,OD600 measurement,"[6]; 10 μM compound, inoculation 2M cells, listed as Caspofungin",0.05 and 0.07
same,OD600 measurement,"[6]; 10 μM compound, inoculation 5M cells, listed as Caspofungin",0.08 and 0.12
same,OD600 measurement,"[6]; 50 μM compound, inoculation 2M cells, listed as Caspofungin",0.06 and 0.07
same,OD600 measurement,"[6]; 50 μM compound, inoculation 5M cells, listed as Caspofungin",0.10 and 0.12
same,OD600 measurement,"[6]; 250 μM compound, inoculation 2M cells, listed as Caspofungin",0.05 and 0.07
same,OD600 measurement,"[6]; 250 μM compound, inoculation 5M cells, listed as Caspofungin",0.09 and 0.12
same,OD600 measurement,[12]; 150 μl,0.11 and 0.09 (3×) and 0.10 (2×)
same,OD600 measurement,[12]; 300 μl,0.08 (4×) and 0.09 (2×)
same,OD600 measurement,[12]; 600 μl,0.08 (3×) and 0.09 (3×)
same,OD600 measurement,[12]; 900 μl,0.08 (4×) and 0.09 (2×)
same,resistance of the msh2Δ strain,[13]; all volume conditions,resistant to caspofungin
same,"OD600 readings, all 36 wells","[13]; msh2Δ, 150-900 μl",above 0.85
CC(C)CCCC(=O)CCCCCCC(=O)CCN(O)C(=O)[C@@H](N)CO,known target (LCB2),[14],known target of lipoxamycin
CC(=C\C(=O)O)/C=C(\C)C[C@H](C)CCCC[C@H]1OC(=O)[C@@H]1CO,OD600 measurement,[6]; [16],0.92 and 1.09
same,OD600 measurement,[6]; [17],0.58 and 0.99
same,OD600 measurement,[6]; [18],0.90 and 1.02
same,OD600 measurement,[6]; [19],0.66 and 0.91
same,OD600 measurement,[6]; [20],0.84 and 0.97
same,OD600 measurement,[6]; [21],0.48 and 0.91
same,OD600 measurement,[6]; [22],0.75 and 0.85
same,OD600 measurement,[6]; [23],0.51 and 0.81
same,OD600 measurement,[6]; [24],0.82 and 0.54
same,OD600 measurement,[6]; [25],0.53 and 0.59
same,OD600 measurement,"[6]; 50 μM compound, inoculation 2M cells",0.79 and 0.76
same,OD600 measurement,"[6]; 50 μM compound, inoculation 5M cells",0.58 and 0.54
same,OD600 measurement,"[6]; 250 μM compound, inoculation 2M cells",0.07 and 0.11
same,difference in OD600 measurements between EMS-Library and Control-Library samples,[6]; all concentrations tested,not significant
CCC[C@H](O)C[C@@H]1CC[C@H](C)CCCCC(=O)N(C)[C@@H](Cc2ccc(OCCO)cc2)C(=O)O1,ERG25-detected bioactivity,[15],ERG25-detected bioactivity
